Laboratory results published in ChEMBL document CHEMBL4814060, “Design, synthesis and biological evaluation of novel pleuromutilin derivatives as potent anti-MRSA agents targeting the 50S ribosome” (Bioorg Med Chem, 2021).

Amino acid sequences for entries named in this document (tags omitted). A change or cut given only in a name is not applied to a line headed by its entry.
UniProt P0A7J3: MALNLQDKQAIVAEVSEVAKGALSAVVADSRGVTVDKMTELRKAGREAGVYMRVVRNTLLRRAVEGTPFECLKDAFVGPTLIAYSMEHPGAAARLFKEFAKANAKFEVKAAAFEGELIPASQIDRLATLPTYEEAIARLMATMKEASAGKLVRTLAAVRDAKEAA
UniProt P0A7L0: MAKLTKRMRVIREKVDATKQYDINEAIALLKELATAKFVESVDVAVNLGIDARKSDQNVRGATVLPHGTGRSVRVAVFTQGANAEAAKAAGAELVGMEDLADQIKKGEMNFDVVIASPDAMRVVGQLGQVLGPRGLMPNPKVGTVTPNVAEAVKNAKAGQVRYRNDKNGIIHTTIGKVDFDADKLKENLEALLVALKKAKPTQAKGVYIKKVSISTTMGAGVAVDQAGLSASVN
UniProt P0A7N1: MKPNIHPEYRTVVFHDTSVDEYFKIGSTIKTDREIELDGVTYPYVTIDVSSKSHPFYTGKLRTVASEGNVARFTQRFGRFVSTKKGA
UniProt Q2EEQ2: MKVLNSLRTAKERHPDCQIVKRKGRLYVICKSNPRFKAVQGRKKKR

Target: Bacterial 70S ribosome (Bacteria) (UniProt P0A7V0+P60723+P0AG67+P0A7R5+P0A7R9+P0A7S3+P0A7S9+P0AG59+P0ADZ4+P0A7T3+P0AG63+P0A7T7+P0A7U3+P0A7U7+P68679+P0A7V3+P0A7V8+P0A7W1+P02358+P02359+P0A7W7+P0A7X3+P0A7J3+P0A7J7+P0AA10+P0ADY3+P02413+P0ADY7+P0AG44+P0C018+P0A7K6+P0A7L0+P0A7L3+P0AG48+P61175+P0ADZ0+P60624+P68919+P0A7L8+P0A7M2+P0A7M6+P60422+P0AG51+P0A7N1+P0A7M9+P0A7N4+P0A7N9+P0A7P5+P0A7Q1+Q2EEQ2+P0A7Q6+P60438+P62399+P0AG55+P0A7K2)
Test: Binding affinity to Staphylococcus aureus ATCC 43300 50S ribosome assessed as dissociation rate constant by SPR analysis
Format: subcellular
Summary of the method: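 The 50S subunit was purified from ATCC 43300 by sucrose cushion, a 7–30% sucrose gradient and PEG precipitation. Compounds at 100 µM in DMSO were photo-crosslinked onto the chip and printed four times each. Ribosome at 200–3200 nM in PBST (pH 7.4, 0.1% Tween 20) was run at 4 °C: association 600 s, then dissociation 360 s, both at 0.5 µL/s. Surface was regenerated with glycine-HCl pH 2.0.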

Compound: C=C[C@]1(C)C[C@@H](OC(=O)CSCCN(CC)CC)[C@]2(C)[C@H](C)CC[C@]3(CCC(=O)[C@H]32)[C@@H](C)[C@@H]1O [TIAMULIN]
- Kdiss: 2.5 10^-8M
